The values that follow are results of earlier work, collected in article PMC10483858 (Molecular Cancer, 2023).

In this data set the target is PD-L1. Also on record: method as in PMID 32630327. The conditions noted are these: read-out: KD of the PD-1/PD-L1 interaction; ref [10]; cited from earlier work.

For “PD-1: immune checkpoint molecule programmed cell death 1, binding partner of PD-L1”, the Kd was about 8 µM.
